Laboratory results taken from patent US7160555B2, “Immediate release medicinal compositions for oral use” (Kissei Pharmaceutical Co., Ltd., priority 1999, dated 2007).

Assay: Solubility in water
Type: physicochemical

In the case of “(2S)-2-benzyl-3-(cis-hexahydro-2-iso-indolinylcarbonyl)propionic acid”, the solubility in water is reported as “poorly soluble in water”.
